The nature of the data set: Measurement of logP values by HPLC on reversed phase columns (EEC directive 79/831 Annex V.A8). It counts as physicochemical. Particulars: for Log P: pH 2.7, 0.1% formic acid in water / acetonitrile, single value.

Structures are written as SMILES.

As to `Cc1snnc1C(=NOCc1cccc(NC(=O)CSc2ccccc2)n1)c1ccccc1` (mixture of isomers) [Example 6], the “Log P [I1] main isomer” value (pH 2.7, 0.1% formic acid, main isomer) is reported as 4.21.

Consider `Cc1snnc1C(=NOCc1cccc(NC(=O)COCc2ccccc2)n1)c1ccccc1` (mixture of isomers) [Example 29], for which the “Log P [I2] minor isomer” value (pH 2.7, 0.1% formic acid, minor isomer) was 4.21.

Consider `Cc1snnc1C(=NOCc1csc(NC(=O)COc2ccc(Cl)cc2)n1)c1ccccc1` (mixture of isomers) [Example 33], for which the “Log P (two values printed, isomers not assigned)” value (pH 2.7, 0.1% formic acid, two values without isomer tag) stood at 4.21.

As a reminder, the Log P is a log measure of how a compound divides between an organic and an aqueous phase. A lower Log P goes with a more hydrophilic compound. On to `Cc1snnc1C(=NOCc1cccc(NC(=O)COCCC(C)C)n1)c1ccccc1` [Example 4], for which the lipophilicity (Log P) is on record as 4.78.

Regarding `Cc1snnc1C(=NOCc1cccc(NC(=O)COc2ccc(I)cc2)n1)c1ccccc1` [Example 46], the “Log P” value is 4.78.

With `Cc1snnc1C(=NOCc1cccc(NC(=O)CSCCC(C)C)n1)c1ccccc1` [Example 68], the “Log P” value is 4.78.

Take `Cc1snnc1C(=NOCc1csc(NC(=O)C(C)OCC(C)C)n1)c1ccccc1` (centres unmarked) [Example 85]: the “Log P” value was 4.39.

In the case of `CCCCOC(C)C(=O)Nc1cccc(CON=C(c2ccccc2)c2nnsc2C)n1` (centres unmarked) [Example 97], the “Log P” value is given as 4.78.

Source of the values: patent publication US20130116287A1 (priority 2010, published 2013).
